# Experimental properties from OPERA 2.9

Source: data files of OPERA 2.9 (Mansouri et al.), github.com/kmansouri/OPERA.

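The numbers are reported measurements, compiled and curated for the OPERA QSAR suite. One number stands for a compound and property, with no spread given. Conditions of the individual experiments are not part of the data. Where a salt, mixture or single isomer is drawn, the source does not say that exactly this form was tested. Unmarked limits or estimates from the upstream databases cannot be ruled out.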

Melting points are in °C.
Boiling points are in °C, nominally at 760 mmHg.
The octanol-water partition coefficient is given as log10; larger values mean a more lipophilic compound.
Water solubility is log10 of mol/L, nominally at 25 °C; higher is more soluble.
Vapor pressure is log10 of mmHg; the set covers 15 to 30 °C, mostly 20 to 25 °C.
The Henry's law constant is on a log10 scale in atm·m3/mol (set defined at 25 °C); higher favours air over water.
The unbound fraction in human plasma runs from 0 (all bound) to 1 (all free).
Clint is human hepatic intrinsic clearance in µL/min per million cells; 0 means that no clearance was seen.
"n/a" marks a cell with nothing listed here.

compound | name | melting point (°C) | BP (°C) | logP (octanol/water) | log solubility (log10 mol/L) | log VP (log10 mmHg) | log H (log10 atm·m3/mol) | plasma fu | Clint (µL/min/10^6 cells)
Cc1ccccc1N | 2-methylaniline | n/a | n/a | n/a | n/a | n/a | n/a | 0.713 | 0
CC#Cc1cc(C)nc(Nc2ccccc2)n1 | Mepanipyrim | n/a | n/a | n/a | n/a | n/a | -7.783 | 0.03419 | n/a
CC(=O)NC(=O)CCl | N-acetyl-2-chloroacetamide | 114 | n/a | n/a | -1.509 | n/a | n/a | n/a | n/a
CC(C)(C)CC(C)(C)c1cc(-n2nc3ccccc3n2)c(O)c(C(C)(C)c2ccccc2)c1 | n/a | n/a | 440 | n/a | -6.806 | -8.518 | n/a | n/a | n/a
CNC(=O)Oc1cccc2c1OC(C)(C)C2=O | 3-Ketocarbofuran | n/a | n/a | n/a | -1.719 | -4.818 | n/a | n/a | n/a
O=C([O-])c1c(Cl)c(Cl)c(Cl)c(Cl)c1-c1c2cc(Br)c(=O)c(Br)c-2oc2c(Br)c([O-])c(Br)cc12.O=C([O-])c1c(Cl)c(Cl)c(Cl)c(Cl)c1-c1c2cc(Br)c(=O)c(Br)c-2oc2c(Br)c([O-])c(Br)cc12.O=C([O-])c1c(Cl)c(Cl)c(Cl)c(Cl)c1-c1c2cc(Br)c(=O)c(Br)c-2oc2c(Br)c([O-])c(Br)cc12.[Al+3].[Al+3] | D&C Red No. 27 aluminum lake | n/a | n/a | 4.29 | -6.49 | n/a | n/a | n/a | n/a
Nc1cc(Cl)cc(C(=O)O)c1Cl | Chloramben | n/a | n/a | 1.11 | n/a | -2.156 | n/a | n/a | 0
CC(C)N(C(=O)CCl)c1ccccc1 | Propachlor | n/a | n/a | n/a | n/a | n/a | n/a | 0.345 | 69.7
CCCCOC(=O)CC(SP(=S)(OCCC)OCCC)C(=O)OCCCC (stereo unspecified) | n/a | n/a | 359.9 | n/a | -6.279 | n/a | n/a | n/a | n/a
COc1nc(C)nc(NC(=O)NS(=O)(=O)c2ccccc2CCC(F)(F)F)n1 | Prosulfuron | 155 | n/a | n/a | -3.09 | -7.58 | -8.529 | n/a | 10.37
CCN(CC)CCN1C(=O)CN=C(c2ccccc2F)c2cc(Cl)ccc21 | Flurazepam | n/a | n/a | 3.8 | n/a | n/a | n/a | 0.03 | n/a
CNC(=N[N+](=O)[O-])NCC1CCOC1 (stereo unspecified) | Dinotefuran | n/a | n/a | n/a | -0.706 | -7.893 | n/a | n/a | n/a
CCN1CCC2(CC1)COc1cc3c(cc12)N(C(=O)c1ccc(-c2ccc(-c4nnc(C)o4)cc2C)cc1)CC3.Cl | n/a | n/a | n/a | n/a | n/a | n/a | n/a | 0.015 | 4.65
Cc1cccc([C@H](C)c2cnc[nH]2)c1C | Dexmedetomidine | n/a | n/a | 2.8 | -3.061 | n/a | n/a | n/a | n/a
CCOC(=O)CP(=O)(OCC)OCC | Triethyl phosphonoacetate | n/a | n/a | 1.13 | n/a | -2.34 | n/a | n/a | n/a
OC(c1ccc(F)cc1)(c1cncnc1)c1ccccc1Cl (stereo unspecified) | Nuarimol | n/a | n/a | n/a | n/a | -7.693 | -9.491 | n/a | n/a
CCOP(=S)(OCC)SCn1c(=O)oc2cc(Cl)ccc21 | Phosalone | n/a | n/a | n/a | n/a | -6.932 | -7.696 | n/a | n/a
CCC12COCN1COC2 | 7a-Ethyldihydro-1H,3H,5H-oxazolo(3,4-c)oxazole | -0.1 | 189.6 | -0.705 | n/a | 0.095 | n/a | n/a | n/a
CCCSC(=O)N(CCC)CCC | Vernolate | n/a | n/a | n/a | n/a | n/a | -4.51 | 0.01906 | 25.1
CCCCN(CCCC)SN(C)C(=O)Oc1cccc2c1OC(C)(C)C2 | Carbosulfan | n/a | n/a | n/a | n/a | n/a | -5.912 | n/a | 26.74
Cc1ccc(S(=O)(=O)NCCCCCC(=O)O)cc1 | Hexanoic acid, 6-[[(4-methylphenyl)sulfonyl]amino]- | 112 | n/a | n/a | -2.91 | -8.345 | n/a | n/a | n/a
S=C1NCCN1 | 4,5-Dihydro-2-mercaptoimidazole | n/a | n/a | n/a | n/a | -0.501 | -6.395 | n/a | n/a
Oc1nc(Cl)c(Cl)cc1Cl | 3,5,6-Trichloro-2-pyridinol | n/a | n/a | n/a | n/a | -2.987 | -4.964 | n/a | n/a
Brc1cc(Br)c(Oc2cc(Br)c(Br)cc2Br)c(Br)c1 | 2,2',4,4',5,6'-Hexabromodiphenyl ether | n/a | n/a | n/a | -8.869 | -7.545 | n/a | n/a | n/a
CCOP(=S)(OCC)SC1OCCOC1SP(=S)(OCC)OCC (stereo unspecified) | Dioxathion | n/a | n/a | 3 | -5.47 | n/a | n/a | n/a | n/a
CCOC(=O)C1(c2ccccc2)CCN(CCc2ccc(N)cc2)CC1 | Anileridine | n/a | n/a | 3.7 | -4.454 | n/a | n/a | 0.05 | n/a
CCCCCCCCOC(N)=O | Carbamic acid, octyl ester | 67 | n/a | n/a | -3.3 | n/a | n/a | n/a | n/a
O=C(O)CCCCCNc1nc(NCCCCCC(=O)O)nc(NCCCCCC(=O)O)n1 | n/a | 186 | n/a | 0.15 | n/a | n/a | n/a | n/a | n/a
CCOc1nc(F)cc2nc(S(=O)(=O)Nc3c(Cl)cccc3Cl)nn12 | Diclosulam | n/a | n/a | n/a | -4.81 | n/a | n/a | 0.006747 | n/a

Excerpt, the final 3 entries:

| compound | name | melting point (°C) | BP (°C) | logP (octanol/water) | log solubility (log10 mol/L) | log VP (log10 mmHg) | log H (log10 atm·m3/mol) | plasma fu | Clint (µL/min/10^6 cells) |
|---|---|---|---|---|---|---|---|---|---|
| CCCCCCCCOC(N)=O | Carbamic acid, octyl ester | 67 | n/a | n/a | -3.3 | n/a | n/a | n/a | n/a |
| O=C(O)CCCCCNc1nc(NCCCCCC(=O)O)nc(NCCCCCC(=O)O)n1 | n/a | 186 | n/a | 0.15 | n/a | n/a | n/a | n/a | n/a |
| CCOc1nc(F)cc2nc(S(=O)(=O)Nc3c(Cl)cccc3Cl)nn12 | Diclosulam | n/a | n/a | n/a | -4.81 | n/a | n/a | 0.006747 | n/a |